Among the data in ChEMBL document CHEMBL5576147, “Development of Brain Penetrant Pyridazine Pantothenate Kinase Activators” (J Med Chem, 2024) are CLint scaled values, retold here.

This series can be described thus: in vitro. The following applies: mouse, liver microsomes. The arrangement: dose or concentration left out as unconfirmed.
In turn, `CC(CF)c1ccc(CC(=O)N2CCN(c3ccc(C#N)nn3)CC2)cc1` (stereo not drawn) showed a CLint scaled at 4 h of 64.5 mL/min/kg.

In the case of `CC(c1ccc(CC(=O)N2CCN(c3ccc(C#N)nn3)CC2)cc1)C(F)(F)F` (stereo not drawn), the CLint scaled at 4 h was 301 mL/min/kg. On to `CN(C)c1ccc(CC(=O)N2CCN(c3ccc(C#N)nn3)CC2)cc1`, for which the CLint scaled at 4 h was determined as 36.7 mL/min/kg.

The CLint scaled is a measure of how fast metabolising enzymes remove a compound, apart from limits set by blood flow.
